Blank lines part the entries; values can stand above or below the binder they belong to.
Assays:
[1] = target: human β-secretase 1 (BACE1), extracellular/catalytic domain (human) (UniProt P56817); test: biolayer interferometry; biotinylated protease on streptavidin sensor, Fab in solution
[2] = target: human β-secretase 1 (BACE1), extracellular/catalytic domain (human) (UniProt P56817); test: FRET peptide inhibition assay; KI=IC50/(S/Km+1)

Sequences of proteins named here, by UniProt entry; tags and fusion partners are left off. A line that says so, or that is headed by a name, gives the form on record, which may keep a tag or linker. Residues count along the entry.
UniProt P56817, 46-457 limits assumed, form in doubt: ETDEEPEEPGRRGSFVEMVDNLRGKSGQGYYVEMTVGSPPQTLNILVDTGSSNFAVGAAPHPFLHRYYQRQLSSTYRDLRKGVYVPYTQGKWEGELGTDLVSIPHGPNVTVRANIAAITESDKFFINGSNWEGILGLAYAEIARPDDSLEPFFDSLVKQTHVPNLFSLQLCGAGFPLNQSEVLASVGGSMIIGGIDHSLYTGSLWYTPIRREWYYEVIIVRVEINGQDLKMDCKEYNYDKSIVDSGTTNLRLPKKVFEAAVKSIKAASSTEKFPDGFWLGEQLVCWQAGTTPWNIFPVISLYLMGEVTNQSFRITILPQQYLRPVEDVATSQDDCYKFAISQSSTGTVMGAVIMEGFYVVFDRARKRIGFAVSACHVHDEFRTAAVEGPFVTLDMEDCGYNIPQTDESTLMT

Kd [1]: 110 nM
B1: anti-BACE1 Fab B2B9 (Fab, V domains shown)
VH: EVQLVESGGGLVQPGGSLRLSCAASGFNISYSSMHWVRQAPGKGLEWVASIYPSYSYTSYADSVKGRFTISADTSKNTAYLQMNSLRAEDTAVYYCARSSSSYYYGMDYWGQGTLVTVSS
VL: DIQMTQSPSSLSASVGDRVTITCRASQSVSSAVAWYQQKPGKAPKLLIYSASSLYSGVPSRFSGSRSGTDFTLTISSLQPEDFATYYCQQSSYSLITFGQGTKVEIKR

Ki [2]: 13 nM
B2: anti-BACE1 IgG B3B12 (antibody, V domains shown)
VH: EVQLVESGGGLVQPGGSLRLSCAASGFNIPYSSMHWVRQAPGKGLEWVASISSYSSSTSYADSVKGRFTISADTSKNTAYLQMNSLRAEDTAVYYCARYICGHRWRDFDMWRARTGVNYAMDYWGQGTLVTVSS
VL: DIQMTQSPSSLSASVGDRVTITCRASQSVGTYLNWYQQKPGKAPKLLIYATSNLRSGVPSRFSGSGSGTDFTLTISSLQPEDFATYYCQQSYSIPRFTFGPGTKLEIKR

From patent US20200392251A1
